Reported properties for industrial, environmental and drug-like chemicals

From the experimental data distributed with OPERA 2.9.

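The numbers are reported measurements, compiled and curated for the OPERA QSAR suite. One number stands for a compound and property, with no spread given. Method and conditions are not stated for these values. Where a salt, mixture or single isomer is drawn, the source does not say that exactly this form was tested. Some entries may be limits or estimates that an upstream database listed as plain numbers.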

The melting point is given in degrees Celsius.
Boiling points are in °C, nominally at 760 mmHg.
The octanol-water partition coefficient is given as log10; larger values mean a more lipophilic compound.
Water solubility is log10 of mol/L, nominally at 25 °C; higher is more soluble.
Vapor pressures (log10 mmHg) refer to near room temperature, 15 to 30 °C; higher is more volatile.
The Henry's law constant is on a log10 scale in atm·m3/mol (set defined at 25 °C); higher favours air over water.
The unbound fraction in human plasma runs from 0 (all bound) to 1 (all free).
Cells with "n/a" have no entry in this list.

compound,melting point (°C),boiling point (°C),logP,water solubility (log10 mol/L),log VP (log10 mmHg),log H (log10 atm·m3/mol),fraction unbound
NCCCCCCCCCCCC(=O)O,n/a,n/a,-0.18,-3.196,-13.47,n/a,n/a
CCOC(=O)[C@@H]1C2CCC(CC2)[C@H]1Nc1nc(Cl)ncc1F,129.5,n/a,3.6,-4.235,-7.693,n/a,n/a
CCCCCCCCCCCC(=O)OC(C)CS(=O)(=O)[O-].[Na+] (centres undefined),154.7,n/a,n/a,-2.317,n/a,n/a,n/a
CC(=O)N[C@@H](Cc1cc([N+](=O)[O-])c(O)c([N+](=O)[O-])c1)C(=O)O,170,n/a,n/a,-2.228,-4.912,n/a,n/a
Cn1cc(C(=O)Nc2ccccc2C2CC2C2CC2)c(C(F)F)n1 (centres undefined),121,270,n/a,n/a,-9.312,-10.4,n/a
CCCCCCCC/C=C\CCCCCCCCNCCCNCCCNCCCN,56,n/a,-0.3,-3.836,-6.298,n/a,n/a
Cc1c(-c2ccccc2)oc2c(C(=O)OCCN3CCCCC3)cccc2c1=O,n/a,n/a,4.4,-4.405,n/a,n/a,n/a
CNC(=O)c1cc(Cl)ccn1.Cl,n/a,n/a,1.3,n/a,-2.995,n/a,n/a
O=c1c2ccccc2[nH]c2cc3c(=O)c4ccccc4[nH]c3cc12,n/a,n/a,2.2,-7.482,n/a,n/a,n/a
CC(=O)CCCCCl,-30.9,n/a,1.43,n/a,0.008,n/a,n/a
CCOC(=O)[C@H](CCc1ccccc1)N[C@@H](C)C(=O)N1Cc2ccccc2C[C@H]1C(=O)O,n/a,n/a,3.2,-4.713,n/a,n/a,0.03541
CCC[C@@H]1C[C@@H](C(=O)N[C@@H]([C@H]2O[C@H](SC)[C@H](O)[C@@H](O)[C@H]2O)[C@@H](C)O)N(C)C1,n/a,n/a,n/a,-2.64,n/a,n/a,0.24
CCOC(=O)C1CCCO1 (centres undefined),n/a,n/a,1.11,n/a,0.121,n/a,n/a
C=C(Cl)C(Cl)CCl (centres undefined),-52,n/a,2.4,n/a,n/a,n/a,n/a
COC1=CCC2=C(CCC3C2CCC2(C)C3CCC2(O)C#N)C1 (centres undefined),179.7,n/a,5.07,-5.683,-8.097,n/a,n/a
C=CC(=O)OCCOCCOC(C)OCC(COC(C)OCCOCCOC(=O)C=C)(COC(C)OCCOCCOC(=O)C=C)NC(=O)COc1ccc2sc3ccccc3c(=O)c2c1 (centres undefined),n/a,n/a,n/a,-5.289,-7.998,n/a,n/a
C[C@@H]1CCN(c2nc3cc(Cl)ccc3o2)CCN1.Cl,225.5,n/a,3.19,n/a,-7.188,n/a,n/a
CCCCCCCCCCN(C)C,-33,n/a,n/a,-4.045,-1.268,n/a,n/a
CC(C)CC(C)(O)CCC(C)(O)CC(C)C (centres undefined),-37,n/a,n/a,-2.149,-3.837,n/a,n/a
COC1(C(F)(C(F)(F)F)C(F)(F)F)OC(F)(C(F)(C(F)(F)F)C(F)(F)F)C(F)(F)C1(F)F (centres undefined),n/a,167.4,6.6,-9.113,-0.079,n/a,n/a
CCC(=O)OCCC(C)C,n/a,n/a,3.133,-2.87,n/a,n/a,n/a
CCCCC(CC)COC(=O)C1CCC2OC2C1 (centres undefined),n/a,n/a,n/a,-3.326,-3.453,n/a,n/a
CC(CCC(=O)O)C(=O)O (centres undefined),n/a,289,0.177,n/a,-5.214,n/a,n/a
COc1cc(C#N)cc(OC)c1O,127,n/a,1.33,n/a,n/a,n/a,n/a

Extract of 4 entries:

compound,melting point (°C),boiling point (°C),logP,water solubility (log10 mol/L),log VP (log10 mmHg),log H (log10 atm·m3/mol),fraction unbound
COc1cc(C#N)cc(OC)c1O,127,n/a,1.33,n/a,n/a,n/a,n/a
Cn1cc(C(=O)Nc2ccccc2C2CC2C2CC2)c(C(F)F)n1 (centres undefined),121,270,n/a,n/a,-9.312,-10.4,n/a
CCOC(=O)C1CCCO1 (centres undefined),n/a,n/a,1.11,n/a,0.121,n/a,n/a
CCC(=O)OCCC(C)C,n/a,n/a,3.133,-2.87,n/a,n/a,n/a